The target in experiment [1] is T1, Tdp1 (Homo sapiens (Human), UniProt Q9NUW8). Briefly: Gel-based assay measuring the inhibition of recombinant Tdp1.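 Further: 5′-32P-labeled single-stranded DNA with 3′-phosphotyrosine incubated with 5 pM enzyme for 15 min at room temperature, inhibition seen as loss of 3′-phosphate product band by densitometry.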 In kind it is biochemical.
Experiment [2] concerns the target T1, Tdp1. Briefly: FRET assay, mechanism of inhibition. The format is biochemical. To be noted: competitive inhibitor.
Experiment [3] deals with HOP-62. Briefly: cells. The note with it: Homo sapiens, HOP-62, read-out: Cytotoxicity (GI50 in μM) lung HOP-62.
Experiment [4] deals with UACC-62. Briefly: cells. The note with it: Homo sapiens, UACC-62, read-out: Cytotoxicity (GI50 in μM) melanoma UACC-62.

Chains of the proteins cited; added tags and fusions are not shown.
UniProt Q9NUW8, whole entry: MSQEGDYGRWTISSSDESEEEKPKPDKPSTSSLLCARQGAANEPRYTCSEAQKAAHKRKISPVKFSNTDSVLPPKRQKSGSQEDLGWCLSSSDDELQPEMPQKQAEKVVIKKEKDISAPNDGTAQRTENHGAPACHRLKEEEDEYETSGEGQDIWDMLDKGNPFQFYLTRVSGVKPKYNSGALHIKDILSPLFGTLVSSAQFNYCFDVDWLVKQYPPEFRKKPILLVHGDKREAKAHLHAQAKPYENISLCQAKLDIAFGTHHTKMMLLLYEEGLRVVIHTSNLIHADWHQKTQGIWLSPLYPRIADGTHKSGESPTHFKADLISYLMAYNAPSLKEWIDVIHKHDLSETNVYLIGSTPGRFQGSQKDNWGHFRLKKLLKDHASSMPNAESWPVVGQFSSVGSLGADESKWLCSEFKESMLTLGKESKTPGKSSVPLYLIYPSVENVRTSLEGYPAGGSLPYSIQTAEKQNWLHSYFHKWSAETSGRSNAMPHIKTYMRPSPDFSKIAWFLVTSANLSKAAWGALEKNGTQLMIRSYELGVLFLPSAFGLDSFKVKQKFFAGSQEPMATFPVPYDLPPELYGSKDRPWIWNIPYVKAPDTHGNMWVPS

A value given as a limit tells only on which side of the number the result lay.

The term IC50 denotes the point on the concentration scale where inhibition reaches its midpoint. For orientation: Ki means the equilibrium dissociation constant of an inhibitor or competing ligand from its target. In general, GI50 refers to the concentration that inhibits growth by half.

As for `CC(=O)Nc1ccc2c3c(n(CCCN)c(=O)c2c1)-c1ccccc1C3O` (centres unmarked) [Compound 61 of (B)], in experiment [1], the half-maximal inhibitory concentration (IC50) was more than 111 µM and the “Tdp1 inhibitory activity (in words)” value was “not active”.

In the case of `NCCCn1c2c(c3ccc([N+](=O)[O-])cc3c1=O)C(=O)c1ccccc1-2` [Compound 60 of (B)], in experiment [1], the IC50 was more than 37 µM.

For the compound `CC(=O)Nc1ccc2c3c(n(CCCN=[N+]=[N-])c(=O)c2c1)-c1ccccc1C3=O` [Compound 56 of (B)], in experiment [1], the IC50 is more than 111 µM.

Turning to `Cl.NCCCn1c2c(c3ccccc3c1=O)C(=O)c1ccccc1-2` [Compound 70 of (A)], the Ki in experiment [2] amounted to 3.19 µM.

With `CNc1ccc2c3c(n(CCCN)c(=O)c2c1)-c1ccccc1C3=O` [Compound 59 of (B)], in experiment [1], the IC50 lay in the range of 37 to 111 µM.

On to `COc1ccc2c(c1)-c1c(c3ccc([N+](=O)[O-])cc3c(=O)n1CCCN)C2=O.Cl` [Compound 51 of (B), 6-(3-Aminopropyl)-5,6-dihydro-8-methoxy-3-nitro-5,11-dioxo-11H-indeno[1,2-c]isoquinoline Hydrochloride], for which the GI50 in experiment [3] and in experiment [4] was 0.14 µM throughout.

Source of the values: patent US8912213B2, “Synthesis and use of dual tyrosyl-DNA phosphodiesterase I (TDP1)- topoisomerase I (TOP1) inhibitors” (Purdue Research Foundation, priority 2012, dated 2014).
